These are literature values, as cited in patent US6689383B1, “Chromium-histidine complexes as nutrient supplements” (The United States of America as represented by the …, priority 1999, dated 2004).

For this series the following is noted: in vivo; cited from earlier work.

Take Chromium polynicotinate: the “Absorption (in words)” value is reported as “poorly-absorbed”.
